Experimental data reported in ChEMBL document CHEMBL4819101, “Design, synthesis and molecular docking studies of thymol based 1,2,3-triazole hybrids as thymidylate synthase inhibitors and apoptosis inducers against breast cancer cells” (Bioorg Med Chem, 2021).

System: MDA-MB-231
Assay: Potency index, ratio of 5-fluorouracil IC50 to test compound IC50 for cytotoxicity against human MDA-MB-231 cells assessed as cell growth inhibition incubated for 72 hrs by MTT assay
Format: functional

In the case of `Cc1ccc(C(C)C)c(OCc2cn(-c3ccccc3C)nn2)c1`, the “Ratio IC50” value is reported as 2.4.
